## AlphaSeq binding of Ab-14 heavy chain variants to a spike HR2 peptide

Data: MIT Lincoln Laboratory AlphaSeq set, Engelhart et al. 2022, doi:10.1038/s41597-022-01779-4, as distributed in FLAb.

Target: peptide PDVDLGDISGINAS, taken from heptad repeat 2 (HR2) of SARS-CoV-2 spike.

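The starting antibody came from a phage panning campaign against this peptide. Library AAYL49 holds single substitutions and randomly drawn double and triple substitutions in the CDRs. The scFvs were displayed on barcoded MATa yeast, the peptide on MATalpha yeast. Binding brings cells together so that they mate, and sequencing counts the barcode pairs among the diploids. Each replicate has its own calibration line, from reference interactions of the BCL2 family. The assay was run in three technical replicates.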

Each scFv is VH, a (GGGGS)3 linker, VL, as in the parent Ab-14, and differs from it in the CDRs of the heavy chain only.
VH: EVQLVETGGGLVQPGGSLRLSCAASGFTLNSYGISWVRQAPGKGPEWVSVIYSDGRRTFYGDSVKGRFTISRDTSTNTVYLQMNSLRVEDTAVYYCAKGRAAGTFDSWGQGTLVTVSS
VL: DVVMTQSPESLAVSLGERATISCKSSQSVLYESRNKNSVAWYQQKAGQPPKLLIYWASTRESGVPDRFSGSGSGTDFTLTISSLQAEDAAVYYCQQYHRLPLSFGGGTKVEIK

Positions count from residue 1 of the parent VH; F27Q puts Q in place of F. The read-out is the apparent dissociation constant on a log10 scale (nM): the lower, the stronger. The mean shown is taken over the replicates in which the pair was detected. An entry "nd" has no value in the source: the pair was not observed among the diploids in that replicate. This suggests poor binding but is not conclusive.

changes,"replicates, log10 nM","mean, log10 nM",empty controls
F27Q+T104N+S107V,0.95 / 1.23 / 1.25,1.14,1/9 (4.16)
D54V+R100Y+A102F,nd / nd / nd,nd,1/9 (2.77)
G26Y+V50I+G61L,4.12 / 5.16 / 5.72,5.00,2/9 (3.10)
Y32W+G99I+F105V,nd / nd / nd,nd,2/9 (3.44)
N30K+Y52S+F105H,nd / 4.50 / nd,4.50,2/9 (3.93)
I34E+R56I+T58N,nd / 3.57 / nd,3.57,3/9 (3.96)
I34A+S63Q+R100M,nd / nd / nd,nd,2/9 (4.68)
I34E+V50N+A101C,nd / nd / nd,nd,1/9 (2.85)
T28Q+I34Y+D106Q,nd / nd / nd,nd,0/9
G26L+T104K,nd / nd / 4.13,4.13,0/9
L29W+G55S+D106V,3.29 / 4.17 / 6.20,4.55,2/9 (4.09)
V50A+Y60Q+V64A,5.67 / nd / 5.64,5.66,4/9 (3.18)
T58K+V64F+R100G,1.85 / 2.42 / 1.36,1.88,0/9
T28D+S53M,nd / nd / nd,nd,0/9
I51Y+G99C,nd / nd / nd,nd,0/9
S35N+G61P+A101Q,nd / nd / nd,nd,4/9 (3.62)
F27V+S53C+R56C,4.39 / 4.34 / 5.16,4.63,5/9 (4.40)
N30R+R57F+V64P,nd / nd / nd,nd,0/9
G61W,4.14 / nd / 4.70,4.42,4/9 (4.15)
V50T+D62S+K65H,3.68 / 3.68 / nd,3.68,4/9 (4.33)
G55S+G99K+S107A,nd / nd / nd,nd,0/9
S31G+G55N+G99L,nd / nd / nd,nd,1/9 (3.77)
N30D+I51T+R57P,4.69 / 4.25 / nd,4.47,4/9 (4.11)
D54W+R57G+G103D,nd / nd / 4.05,4.05,0/9
K65C+A101S+F105C,1.68 / 1.39 / 1.32,1.46,2/9 (3.59)
N30D+I34R+D62N,nd / nd / nd,nd,0/9
G55R+D62I+S63G,2.80 / nd / nd,2.80,0/9
S35R+G55A+A101N,nd / 3.86 / nd,3.86,1/9 (4.07)
G26P+Y52G+G103C,nd / nd / nd,nd,1/9 (3.82)
V50A+R56Y+K65A,nd / nd / nd,nd,0/9
S31P+S53F+G61Y,nd / nd / 3.40,3.40,3/9 (4.80)
T28A+I51K+T58H,nd / nd / nd,nd,1/9 (3.51)
I51P+F59S+D62Y,nd / nd / nd,nd,2/9 (3.50)
G26F+S31D+R56M,1.77 / 2.19 / 2.24,2.07,1/9 (3.52)
F59I+F105N+D106N,3.68 / nd / nd,3.68,2/9 (3.74)
N30M+K65W+D106W,3.86 / 2.98 / 3.96,3.60,5/9 (4.72)
T28P+R56Y+T58D,3.39 / nd / 3.04,3.22,0/9
F59W+S63Y,nd / 2.37 / nd,2.37,0/9
S53V+G61A+V64H,nd / nd / nd,nd,0/9
D54V+G55V+T58Q,nd / nd / nd,nd,1/9 (4.47)
S31A+I51K+V64T,nd / nd / nd,nd,1/9 (5.28)
F27K+G55S+S107L,nd / nd / nd,nd,0/9
G33D+R56A+G103K,nd / nd / 3.39,3.39,1/9 (3.96)
Y52D+R57G,nd / 3.16 / 4.08,3.62,1/9 (2.97)

From the list, the first 3 with no signal in any replicate:

changes,"replicates, log10 nM","mean, log10 nM",empty controls
D54V+R100Y+A102F,nd / nd / nd,nd,1/9 (2.77)
Y32W+G99I+F105V,nd / nd / nd,nd,2/9 (3.44)
I34A+S63Q+R100M,nd / nd / nd,nd,2/9 (4.68)

As a blank, each scFv also met three strains without target: over library AAYL49, 15% of these pairings were detected, typically at 4.06 and seldom below 2.83. The control count says in how many pairings with the empty strains this scFv gave a signal, with their mean in brackets. For reference, the parent read 0.65 as the reference entry and 4.11 (one replicate of three) as a member of this library.